Test results: ChEMBL document CHEMBL5584335, “Investigating Active Site Binding of Ligands to High and Low Activity Carbonic Anhydrase Enzymes Using Native Mass Spectrometry” (J Med Chem, 2024)

Biological target: Carbonic anhydrase 2 (Homo sapiens) (UniProt P00918)
Assay: Binding affinity to human recombinant CA II expressed in Escherichia coli BL21 (DE3) cells assessed as normalized unbound protein/acetate-bound protein remaining at 18.18 uM at protein:compound ratio of 1:2 incubated for 30 mins by native mass spectrometry analysis relative to control

Activity: 100%
SMILES: NS(=O)(=O)c1cc2c(cc1C(F)(F)F)NC(Cc1ccccc1)NS2(=O)=O (stereo unspecified)
